Test results: patent US20030224036A1, “Hla class I a2 tumor associated antigen peptides and vaccine compositions” (priority 1999, published 2003)

Key:
[1] = system: human T cells (PBMC); assay: In vitro primary immunization of normal human PBMC, T cell proliferation (3H-thymidine incorporation); assay type: cell-based
[2] = system: HLA-DR molecules; conditions: cited from earlier work

Substance | antigen concentration at which the 10,000 cpm proliferation level was reached [1] | donors with primary T cell responses [1] | number of the most prevalent HLA-DR molecules bound / tested [2] | potency relative to TT 830-843 antigen for activation of T cell responses, molar basis [1] | donors with primary T cell responses ([1]; three normal donors, third round of stimulation)
QYIKANSKFIGITE [TT 830-843, reference compound] | about 10,000 ng/ml | 2 out of 3 | seven of 16 |  | 
aKXVAAWTLKAAa-NH2 [PADRE, a=D-alanine, X=cyclohexylalanine] |  |  |  | about 100 fold | all three

Like-named read-outs stand apart in the source and are kept apart here.
